According to patent US11161839B2, “2-quinolone derived inhibitors of BCL6” (Cancer Research Technology Limited, priority 2017, dated 2021):

Biological target: human BCL6 BTB domain (Trx-6xHis-BCL6) (Homo sapiens (Human), UniProt P41182)
Test: HTRF in vitro assay (BCL6 BTB domain / BCOR-AF633 peptide)
Assay type: binding

**Q.** What does the source list for CC(CO)Nc1nc(=O)[nH]c2ccc(Nc3ccnc(Cl)c3C#N)cc12 (centres unmarked)?
**A.** HTRF pIC50 (further generated data (Table 1b), 1 nM Trx-6xHis-BCL6, 0.5 nM anti-6xHis-Terbium cryptate): 6.35; HTRF pIC50 (initially generated data (Table 1a), 10 nM Trx-6xHis-BCL6, 1 nM anti-6xHis-Terbium cryptate): 6.10
